## Antibody variant affinities, Ab-14 heavy chain, assay B

Data: MIT Lincoln Laboratory AlphaSeq set, Li et al. 2023, doi:10.1038/s41467-023-39022-2, as distributed in FLAb.

Binding partner: SARS-CoV-2 spike HR2 peptide, sequence PDVDLGDISGINAS.

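The variants were designed computationally from a first round of random CDR variants and then made and measured. Group labels follow the data file (Ctrl: baseline library sampled from a position-specific scoring matrix, with some repeated check sequences; GPLM: also part of the Gaussian process libraries; Gen: genetic algorithm; Gibbs: Gibbs sampling; a sequence that several methods proposed may carry one label only). The scFvs were displayed on barcoded MATa yeast, the peptide on MATalpha yeast. Binding brings cells together so that they mate, and sequencing counts the barcode pairs among the diploids. Scores were corrected for input abundance and mapped to Kd with protein pairs of known affinity run in the same pool. There are six technical replicates.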

Parent: Ab-14, a human scFv built as VH, three GGGGS repeats, VL. Only the CDRs of the heavy chain vary.
VH: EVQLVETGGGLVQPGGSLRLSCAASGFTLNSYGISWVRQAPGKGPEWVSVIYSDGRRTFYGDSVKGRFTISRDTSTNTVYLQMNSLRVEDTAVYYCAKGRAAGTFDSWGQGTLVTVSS
VL: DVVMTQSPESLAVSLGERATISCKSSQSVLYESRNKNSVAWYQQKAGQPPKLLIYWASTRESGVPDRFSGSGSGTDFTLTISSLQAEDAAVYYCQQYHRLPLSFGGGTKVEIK

Variants are written as CDR1, CDR2 and CDR3 of the heavy chain (limits as in the source). Parent: GFTLNSYGIS, VIYSDGRRTFYGDSVK, GRAAGTFDS. Numbers give log10(Kd / nM), so 0 is 1 nM and 3 is 1 µM. Smaller is tighter. "nd" marks a missing value. The strain was present, yet no cells mated with the target were sequenced in that replicate, which points to weak or no binding. The authors' rule: three or more of the six replicates give a measured affinity, fewer mean a poor binder. Some sequences occur more than once in the pool; their replicates are listed entry by entry, parted by semicolons. The parent sequence was in this pool as ten entries: three were never detected, three once, and four in most replicates, with averages from 0.34 to 2.37. A sequence measured in both rounds can read differently, since the two assays cover different ranges. Background: pairings of all heavy chain designs with three empty control strains gave a value in 1% of cases (median 2.08, 5th percentile 0.84). Values in that range, when seen in few replicates, are hard to tell from nonspecific mating. Also given: how often the same scFv was detected with the empty control strains, with their mean in brackets.

CDR-H1 | CDR-H2 | CDR-H3 | group | log10 Kd, replicates | signal with controls
GFPLNSYGIS | VIYSDGRRTFYGDSVK | GRHAGNKDS | Ctrl | nd nd nd nd nd nd | 0/18
GNDILSYGIS | VIYSDGRRTQYGDSVK | GNAAGTFDS | Ctrl | nd nd nd nd nd nd | 0/18
GFNLNSHGIS | VIYSDGWRTFYQDSVK | GKAAGTFRS | Ctrl | nd nd nd nd nd nd | 0/18
GFTLNEYGIS | VIYSDGRRTAYGDSVK | GRAAGTFDS | Ctrl+GPLM_Gen | 0.01 -0.18 0.04 -0.38 -0.27 0.09; -0.14 -0.08 -0.43 -0.16 0.09 -0.12 | 1/36 (1.71)
GFTLNSYSIS | VIYSDGRRTMYGDSVK | GRAAGTFDS | Ctrl | nd nd nd nd nd nd | 0/18
GFTLNSYGIS | VIYSDGRRTFMGDSVK | NRAAGTFDS | Ctrl | nd nd nd nd nd nd | 0/18
GFNLNSYGIS | VIYSDGRRTFYGDSVK | GKAAGTFDS | Ctrl+GPLM_Gen | 1.35 1.37 2.30 nd 2.72 nd; 2.24 1.16 0.83 1.52 1.34 1.36 | 0/36
GEALNSYGIS | VIYSDGRRTFYGPSVK | QRAAGTFDS | Ctrl | nd nd nd nd nd nd | 0/18
GFSLNSYGIS | VIYSDGRRTFYGDAVK | RRTAGTFDS | Ctrl | nd nd nd nd nd nd | 0/18
GFTLNSYGIS | VIYSDGRRTFYTDSVK | GTTAGTFDW | Ctrl | 0.50 0.80 2.20 nd 1.16 nd | 0/18
GFTLNLYGIS | VIYSDGRRTFYGDSVR | GRAKGTFDS | Ctrl | nd nd nd nd nd nd | 0/18
TFTLNSYGIS | VIYSDGRRTFYGDSVK | GRYAGTFDQ | Ctrl | 0.46 nd nd nd nd nd | 0/18
GFTLNSYGIS | VIYSDGRRTAYGDSVK | GKAAGTFDS | Ctrl | 2.01 1.12 0.96 0.77 0.78 0.90 | 1/18 (2.08)
GFTLNSYGIS | VIYSDGRRTFYGDSVR | GRAAGQFPS | Ctrl | nd nd nd nd nd nd | 0/18
GFTLNNYGIS | VIYSDGRRTHYHDQVK | GRVAGTFDM | Ctrl | nd nd nd nd nd nd | 0/18
GFTLDSYGIS | VIYSDGRRTFYMDSVK | GRAAGTFDS | Ctrl | nd nd 0.97 3.23 0.52 2.27 | 0/18
GFTLNQYGIS | VIYSDGRRTFYGDSVW | GRAAGFFDQ | Ctrl | nd nd nd nd nd nd | 0/18
GFTLNSYGIS | VIYSDGRRTMYIDSVK | GRAAGTFDS | Ctrl | nd nd nd nd nd 2.35 | 0/18
GFTLEEYGIS | VIYSDGRRTFYGDSVK | GRVAGTFDS | Ctrl | nd nd nd nd nd nd | 0/18
GFPLNSYGIS | VIYSDGRRTFYGDSVR | GRAAGTFDS | Ctrl | 1.37 1.36 1.65 nd nd 2.39 | 0/18
GFELNSYGIS | VIYADGRRTFYSDSVK | GGAAGTFDS | Ctrl | 0.29 0.17 -0.22 -0.46 -0.30 -0.35 | 0/18
GFTLNSYGIS | VIYSDGQRTFYHDSVE | GYAAGTFKC | Ctrl | nd nd nd nd nd nd | 0/18
GFTLNSYGIS | VIYSDGRRTFYTDSVK | GEEAGTFDS | Ctrl+GPLM_Gibbs | 1.38 0.39 1.07 0.16 0.31 0.55; 0.18 0.78 0.66 0.11 0.62 0.76 | 0/36
GFTLNSQGIS | VIYSDGRRTAYGDSVK | GRAAATFDS | Ctrl | nd nd nd nd nd nd | 1/18 (1.02)
GFTLNSYGIS | VIYSDGRRFFYGDSVK | SSVAGTFDD | Ctrl | nd nd nd nd nd nd | 0/18
GFDLNSYGIS | VIYSDGRRTFYGDSVK | GAAASTFDI | Ctrl | nd 0.79 nd 1.55 nd nd | 0/18
GYTLQSYGIS | VIYSDGRRTFYGDSVK | GRAAGTFLS | Ctrl | nd nd nd nd nd nd | 0/18
GFTLNMYGIS | VIYSDGYRTFYGDSVK | GRAAGTFDV | Ctrl | nd nd 3.12 nd nd 1.53 | 2/18 (1.91)
GFNLESYGIS | VIYSDGRRTFYGDSVK | GNAAGTFDS | Ctrl | 1.10 0.41 nd 0.27 1.28 1.66 | 0/18
GYTLNEYGIS | VIYSDGRRTFYGDSVK | GRAAGTMDS | Ctrl | nd nd nd nd nd nd | 0/18
GFTLNEYGIQ | VIYSDGERTAYGDDVK | GRAAGTFDS | Ctrl | nd nd nd 0.75 nd nd | 0/18
GFTLADYGIS | VIYSDGRRTAYGDSVK | GRAAGTFDS | Ctrl | 0.71 0.97 0.60 0.51 0.75 1.04 | 0/18
GFNLNSYGIS | VIYSDGYRTFYGDSVK | GRAAGTFDS | Ctrl | 1.54 1.44 nd 1.88 0.85 1.47 | 0/18
GFPLNSYGIS | VIYSDGRRTIYGDSVK | GRAAGTFDS | Ctrl | nd nd nd nd nd nd | 0/18
GFTLNSYGIS | VIYSDGFRTMYGDSVK | GSAAGTFDS | Ctrl | nd nd nd 2.02 nd nd | 0/18
GFTLNSYGIS | VIYSDGRRVFYGDSVK | GRVAGTFDS | Ctrl | 0.40 1.23 1.21 1.16 nd 0.83 | 0/18
GFTLNEYGIS | VIYSDGRRTFYGDSVK | GQAAGTFVS | Ctrl | nd 1.45 nd nd nd 1.59 | 0/18
GFTLNSYGIS | VIYSDGRRTAYADSVK | GRAAGTNDS | Ctrl | nd 3.10 4.15 nd nd 3.16 | 2/18 (2.88)
GFNLNSYGRS | VIYSDGRRTFYGDSVK | GRAAGSFPS | Ctrl | nd nd nd nd nd nd | 0/18
GFTLNSYGIS | VIYSDGRRTFYDDEVK | GRAKQTFDS | Ctrl | nd nd nd nd nd nd | 1/18 (1.51)
GFHVNSYGIS | VIYSDGRRTFYGDSVK | GRAAGTFDS | Ctrl | nd nd nd nd nd nd | 0/18
GFTINSYGIS | VIYSDGRRTFYADSVK | GRAAGTFDW | Ctrl | nd 1.87 nd nd nd nd | 1/18 (2.07)

The closing 5 entries, repeated:

CDR-H1 | CDR-H2 | CDR-H3 | group | log10 Kd, replicates | signal with controls
GFTLNSYGIS | VIYSDGRRTAYADSVK | GRAAGTNDS | Ctrl | nd 3.10 4.15 nd nd 3.16 | 2/18 (2.88)
GFNLNSYGRS | VIYSDGRRTFYGDSVK | GRAAGSFPS | Ctrl | nd nd nd nd nd nd | 0/18
GFTLNSYGIS | VIYSDGRRTFYDDEVK | GRAKQTFDS | Ctrl | nd nd nd nd nd nd | 1/18 (1.51)
GFHVNSYGIS | VIYSDGRRTFYGDSVK | GRAAGTFDS | Ctrl | nd nd nd nd nd nd | 0/18
GFTINSYGIS | VIYSDGRRTFYADSVK | GRAAGTFDW | Ctrl | nd 1.87 nd nd nd nd | 1/18 (2.07)